Assay results reported in ChEMBL document CHEMBL2311500, “Identification and characterization of small molecules as potent and specific EPAC2 antagonists” (J Med Chem, 2013).

Amino acid sequences for entries named in this document (tags omitted). A change or cut given only in a name is not applied to a line headed by its entry.
UniProt Q8WZA2: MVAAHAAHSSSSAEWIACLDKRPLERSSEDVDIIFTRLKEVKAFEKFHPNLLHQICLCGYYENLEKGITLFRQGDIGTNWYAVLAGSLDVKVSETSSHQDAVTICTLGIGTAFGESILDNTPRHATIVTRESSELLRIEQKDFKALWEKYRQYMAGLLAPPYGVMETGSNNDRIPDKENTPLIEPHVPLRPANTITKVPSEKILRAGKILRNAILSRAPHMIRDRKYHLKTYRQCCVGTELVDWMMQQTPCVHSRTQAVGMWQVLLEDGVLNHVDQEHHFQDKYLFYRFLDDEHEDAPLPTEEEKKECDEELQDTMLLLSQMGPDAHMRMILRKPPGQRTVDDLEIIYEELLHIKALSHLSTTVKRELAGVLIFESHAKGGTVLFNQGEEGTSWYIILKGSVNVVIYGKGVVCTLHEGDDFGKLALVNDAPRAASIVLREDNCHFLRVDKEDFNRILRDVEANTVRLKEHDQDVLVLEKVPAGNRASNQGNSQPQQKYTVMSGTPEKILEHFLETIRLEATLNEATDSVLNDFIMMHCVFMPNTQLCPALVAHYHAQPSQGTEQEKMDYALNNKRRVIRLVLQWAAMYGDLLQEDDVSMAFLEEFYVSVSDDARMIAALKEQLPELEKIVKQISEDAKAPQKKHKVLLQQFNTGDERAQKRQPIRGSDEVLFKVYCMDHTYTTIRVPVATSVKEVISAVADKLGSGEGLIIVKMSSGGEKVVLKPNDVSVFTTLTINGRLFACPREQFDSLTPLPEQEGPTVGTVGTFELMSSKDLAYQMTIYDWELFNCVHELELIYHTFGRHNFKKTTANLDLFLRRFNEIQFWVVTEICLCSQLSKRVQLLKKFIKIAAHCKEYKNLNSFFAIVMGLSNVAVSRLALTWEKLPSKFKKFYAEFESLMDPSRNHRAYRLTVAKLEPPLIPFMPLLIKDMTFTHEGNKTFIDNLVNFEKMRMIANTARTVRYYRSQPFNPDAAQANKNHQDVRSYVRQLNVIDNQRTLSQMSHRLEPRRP

Molecular target: Rap guanine nucleotide exchange factor 4 (Homo sapiens, UniProt Q8WZA2)
Assay: Antagonist activity at recombinant EPAC2 (unknown origin) assessed 8-NBD-cAMP substrate fluorescence intensity by substrate competing assay

| IC50 [nM] | SMILES |
| --- | --- |
| 8000 | CCc1cccn1S(=O)(=O)c1ccc(Cl)cc1 |
| 500 | CCc1cccn1S(=O)(=O)c1c(C)cc(C)cc1C |
| 300 | Cc1cc(C)c(S(=O)(=O)n2cc(C)cc2C)c(C)c1 |
| 500 | Cc1ccc(S(=O)(=O)c2c(C)cc(C)cc2C)cc1 |
